Measured values: ChEMBL document CHEMBL1136895, “NO donors. Part 18: Bioactive metabolites of GTN and PETN--synthesis and vasorelaxant properties” (2009)

Assay: Vasorelaxant activity in pig pulmonary artery by organ bath experiment

Row | SMILES | EC50
1 | O=[N+]([O-])OCC(O)CO[N+](=O)[O-] | 523 nM
2 | O=[N+]([O-])OCC(CO)(CO[N+](=O)[O-])CO[N+](=O)[O-] | 30 nM
3 | O=[N+]([O-])OCC(CO)O[N+](=O)[O-] (centres undefined) | 1930 nM
4 | O=[N+]([O-])OCC(CO[N+](=O)[O-])(CO[N+](=O)[O-])CO[N+](=O)[O-] | 7 nM
